Values quoted from earlier work in patent US6197768A, “Pyridocarbazole derivatives having cgmp-pde inhibitory activity” (Mochida Pharmaceutical Co., Ltd., priority 1996, dated 2001).

Test system: vascular smooth muscle cells isolated from aortic media
Settings: Garg et al. 1989; Nakaki et al. 1990; cited from earlier work

In the case of `O=[N+]([O-])O[C@H]1CO[C@H]2[C@@H]1OC[C@H]2O[N+](=O)[O-]`, the “proliferation of cultured vascular smooth muscle cells (in words)” value is given as “suppressed”.
